The assay addresses T1, H2 -receptor (Cavia porcellus, UniProt P47747).
T1 construct: The right atria of Males Charles River guinea-pigs; from tissue; host or cells: isolated right atria of male Charles River guinea-pigs
Put plainly: In vitro H2 antagonism: histamine-induced heart rate increase in isolated guinea-pig right atria. Particulars: histamine dose-response, 30 min after antagonist, 32° C. Format: cell-based.

Chains of the proteins cited; added tags and fusions are not shown.
UniProt P47747, whole entry: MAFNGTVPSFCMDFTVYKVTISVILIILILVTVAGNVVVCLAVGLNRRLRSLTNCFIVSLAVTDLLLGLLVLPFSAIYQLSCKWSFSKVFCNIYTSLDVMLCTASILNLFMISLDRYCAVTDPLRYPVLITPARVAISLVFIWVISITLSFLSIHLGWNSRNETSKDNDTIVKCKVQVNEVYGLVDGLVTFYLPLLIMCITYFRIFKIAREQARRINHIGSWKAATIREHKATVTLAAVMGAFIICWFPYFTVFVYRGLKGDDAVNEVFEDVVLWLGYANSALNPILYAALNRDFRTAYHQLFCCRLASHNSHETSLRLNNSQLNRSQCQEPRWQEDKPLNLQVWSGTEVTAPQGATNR

Consider `CNC(=NC#N)NCCSCc1[nH]cnc1C` [Cimetidine, cimetidine], for which the “pA2 (95% interval), apparent dissociation constant” value was 6.40 (6.62-6.17).

(Values after patent publication US4461900A, “4,5-Dihydrothiadiazole 1,1-dioxide derivatives” (American Home Products Corporation, priority 1983, dated 1984).)
